The results in this text go back to PMC3939009, “Thrombin inhibitory activity of some polyphenolic compounds” (Medicinal Chemistry Research, 2013).

Like-named read-outs stand apart in the source and are kept apart here.

For experiment [1], the target named is T1, human thrombin (Homo sapiens, UniProt P00734). Put plainly: BIAcore (SPR) analysis of binding to immobilized thrombin. Set-up: Thrombin, also known as an active plasma coagulation factor II; purchased Sigma-Aldrich Chemical Co. (St. Louis, MO, USA) T7009. The procedure: The biosensor assays were performed using the BIAcore 1000 biosensor system. All biosensor analyses were performed with a phosphate-buffered saline (PBS), pH 7.4, as a running buffer. […] The immobilization of thrombin on a biosensor carboxylmethyl dextran surface was performed according to the BIA applications Handbook (BIAcore, [1994]). The process of protein immobilization was performed on a sensor chip CM5 surface by the positively charged functional groups of protein amino acids. The immobilization process consisted of four steps: preconcentration, activation, ligand immobilization and deactivation of the residual NHS esters. […] The temperature during the whole experiment was also constant and was set to 25.0 °C. […] Each of these solutions (10 μl) was injected into an empty sensor chip channel. […] The amount of injected activation mixture was modified, to regulate the amount of immobilized ligand. […] The conditions of the latter experiments were established by numerous pre-tests. The assessed parameters included: the buffer flow rate, the volume of analyte injection, the concentration of analytes, types and concentration of regenerators. […] For each injection of analyte solution, the volume used was 100 μl. After injection of analyte was completed, the dissociation step occurred and the level of the interaction ligand-analyte was measured. During dissociation, the particles non-covalently bound to the ligand were washed out from the working channel. […] To do these calculations, the formulas presented below were used: the association rate […]]; the dissociation rate -d[AB]/dt=kd·[AB]; the equilibrium constants: KA=[AB]/[A]·[B]=ka/kd KD=[A]·[B]/[AB]=kd/ka.

The target in experiment [2] is T1, human thrombin. Put plainly: Amidolytic activity of thrombin (hydrolysis of chromogenic substrate D-Phe-Pip-Arg-pNA). The format is biochemical. Set-up: Thrombin, also known as an active plasma coagulation factor II; purchased Sigma-Aldrich Chemical Co. (St. Louis, MO, USA) T7009; host or cells: purified from human plasma. To be noted: at 375 μM substrate concentration; compounds 0.1–1,000 μM, preincubation 10 min 37 °C. How it is done: All tested compounds were dissolved in 50 % DMSO to the initial concentration of 10 mM; other solutions of compounds were also prepared in 50 % DMSO (prepared in 50 mM TBS, pH 7.4). The final concentration of DMSO in thrombin samples was 5 %. To prepare thrombin control samples, the same volume of solvent (50 % DMSO prepared in 50 mM TBS, pH 7.4) was added as in the case of the compound volume and warmed for 10 min to 37 °C.
To each reaction well, 40 μl of 3 mM chromogenic substrate was added. To initiate the chromogenic reaction, 280 μl of control thrombin (without tested compounds) or thrombin after preincubation with a polyphenolic compound to every reaction well in the same moment was added. The absorbance value was monitored every 12 s for 10 min. The maximal velocity of the reaction (V max, Δm OD/min) for each absorbance curve was determined. IC50 value (parameter) for every polyphenolic compound from inhibition curves was estimated.

For `Oc1cc(O)c2cc(O)c(-c3ccc(O)c(O)c3)[o+]c2c1` [Cyanidin, cyanidin], the “K A, equilibrium association constant” value on human thrombin [1] is 1.28 × 10^8 M^–1; at human thrombin [1] (5 sensorgrams, 50 to 1,000 μM) it was 1.28e+08 M⁻¹. Also, at human thrombin [1] (5 sensorgrams, 50 to 1,000 μM, read-out: K D, equilibrium dissociation constant), the Kd worked out at 7.79 nM. This compound also displayed an IC50 against human thrombin [2] of 250 nM.
